Data as given in US20180271960A1, “METHOD TO TREAT CANCER USING ARGININE DELPETOR AND ORNITHINE DECARBOXYLASE (ODC) INHIBITOR” (Bio-Cancer Treatment International Ltd., priority 2015, published 2018).

Assays:
Assay type in all cases: cell-based
[1] = test system: lung adenocarcinoma cell lines (H23, H358, HCC827, H1650, H1975, HCC2935, HCC4006, and A549); experiment: MTT assay on the panel of eight lung adenocarcinoma cell lines; details: all tested cell lines; MTT assay after treatment for 72 h
Protocol: (§1) In one example embodiment, eight lung adenocarcinoma cell lines (i.e. H23, H358, HCC827, H1650, H1975, HCC2935, HCC4006, and A549), obtained from ATCC, are used to assess the in vitro efficacies of PEG-BCT-100 and ADI. The inhibition ratio (IR) and the half maximal inhibitory concentration (IC50) values are determined by a MTT assay.

[2] = test system: HCC4006 lung adenocarcinoma cell line; experiment: MTT assay, growth inhibition of HCC4006 cell line; details: MTT assay after treatment for 72 h
Protocol: as §1

[3] = test system: H1975 lung adenocarcinoma cell line; experiment: MTT assay, growth inhibition of H1975 cell line; details: MTT assay after treatment for 72 h
Protocol: as §1

[4] = test system: HCC2935 lung adenocarcinoma cell line; experiment: MTT assay, growth inhibition of HCC2935 cell line; details: MTT assay after treatment for 72 h
Protocol: as §1

[5] = test system: H1650 lung adenocarcinoma cell line; experiment: MTT assay, growth inhibition of H1650 cell line; details: MTT assay after treatment for 72 h
Protocol: as §1

Q: arginine deiminase [ADI] was tested. Which “cytotoxicity (cell viability)” value [1] did it give?
A: induces cytotoxicity in all cell lines

Q: What about the “cytotoxicity (cell viability)” value [2] of the same substance?
A: less cytotoxic effects

Q: What about the “cytotoxicity (cell viability)” value [3] of the same substance?
A: less cytotoxic effects

Q: And the “cytotoxicity (cell viability)” value [4]?
A: less cytotoxic effects

Q: And the “cytotoxicity (cell viability)” value [5]?
A: less cytotoxic effects
